Measured values published in publication PMC10052868 (European journal of medicinal chemistry, 2022).

What was measured:
P. falciparum 3D7 = assay: P. falciparum asexual blood stage viability assay; assay type: cell-based
[1] = test system: panel of 468 kinases (403 non-mutant kinases); assay type: binding, human; details: KINOMEscan
P. berghei ANKA = assay: P. berghei liver stage parasite load assay in HepG2 cells; assay type: cell-based; details: HepG2 host cells

SMILES | fold improvement in potency against P. falciparum blood stage over 39 and 41 (P. falciparum 3D7; compared to both 39 and 41) [fold] | selectivity score S1 (1 μM) [1] | fold improvement in P. falciparum blood stage inhibitory activity over 41 (P. falciparum 3D7; compared to 41) | fold difference between P. berghei EC50 and CellTiter-Fluor CC50 (P. berghei ANKA) [fold] | fold improvement in P. falciparum blood stage potency on adding CF3 or OCF3 (P. falciparum 3D7; compared to parent compound without meta group (64, 66, 67 or 68)) [fold]
COc1cc2nccc(Oc3ccc(NC(=O)Nc4ccc(CN5CCN(C)CC5)c(C(F)(F)F)c4)c(F)c3)c2cc1OC [Compound 45, 1-(4-((6,7-dimethoxyquinolin-4-yl)oxy)-2-fluorophenyl)-3-(4-((4-methylpiperazin-1-yl)methyl)-3-(trifluoromethyl)phenyl)urea diformate] | 5 | 0.33 |  |  | 
COc1cc2nccc(Oc3ccc(NC(=O)Nc4ccc(CC5CCNCC5)cc4)c(F)c3)c2cc1OC [Compound 67, 1-(4-((6,7-dimethoxyquinolin-4-yl)oxy)-2-fluorophenyl)-3-(4-(piperidin-4-ylmethyl)phenyl)urea] |  | 0.055 | approximately 4 fold | 1.4 | 
COc1cc2nccc(Oc3ccc(NC(=O)Nc4ccc(CC5CCNCC5)c(C(F)(F)F)c4)c(F)c3)c2cc1OC [Compound 79, 1-(4-((6,7-dimethoxyquinolin-4-yl)oxy)-2-fluorophenyl)-3-(4-(piperidin-4-ylmethyl)-3-(trifluoromethyl)phenyl)urea] |  | 0.24 |  | 5.9 | 4
